The target of this experiment is Free fatty acid receptor 1 (Homo sapiens, UniProt O14842). Nature of the experiment: Agonist activity at human FFA1 receptor transfected in human 1321N1 cells by calcium mobilization assay relative to TUG-20. It counts as functional, cell-based. Background: A change in cytosolic calcium serves as a functional read-out for many receptors and channels.

By UniProt entry, the sequences of proteins in these tests, tags left out.
UniProt O14842, whole entry: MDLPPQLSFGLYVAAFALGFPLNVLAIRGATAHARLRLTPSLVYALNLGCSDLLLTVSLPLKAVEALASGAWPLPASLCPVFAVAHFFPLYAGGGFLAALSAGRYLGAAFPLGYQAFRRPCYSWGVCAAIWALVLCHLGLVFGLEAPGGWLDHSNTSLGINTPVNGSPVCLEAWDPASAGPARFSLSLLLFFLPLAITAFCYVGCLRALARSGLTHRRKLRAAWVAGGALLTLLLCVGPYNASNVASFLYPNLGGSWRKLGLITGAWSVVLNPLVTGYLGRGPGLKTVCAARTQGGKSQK

The record followed here is ChEMBL document CHEMBL2384913 (ACS Med Chem Lett, 2013).

For the compound `N#CCc1ccccc1C#Cc1ccc(CCC(=O)O)cc1`, the Efficacy was determined as 103%.
